Data on 16 compounds can be found in patent US9464044B2, “Compound having ability to inhibit 11Beta-HSD1 enzyme or pharmaceutically acceptable salt thereof, method for producing same, and pharmaceutical composition containing same as active ingredient” (AHN-GOOK PHARMACEUTICAL CO., LTD., priority 2012, dated 2016).

By UniProt entry, the sequences of proteins in these tests, tags left out. Where a name states a change or a piece, a line headed by the entry shows the natural chain unless it says otherwise.
UniProt P28845: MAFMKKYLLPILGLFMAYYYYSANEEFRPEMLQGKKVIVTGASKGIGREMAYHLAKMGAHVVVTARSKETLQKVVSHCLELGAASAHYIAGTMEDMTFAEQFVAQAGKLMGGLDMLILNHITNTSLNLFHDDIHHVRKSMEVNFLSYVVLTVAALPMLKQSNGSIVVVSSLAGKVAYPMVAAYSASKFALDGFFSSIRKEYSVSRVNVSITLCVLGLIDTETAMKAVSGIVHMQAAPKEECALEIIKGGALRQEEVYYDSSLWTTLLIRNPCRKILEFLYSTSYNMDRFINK

The target of this experiment is 11β-HSD1 (Homo sapiens (Human), UniProt P28845). The experiment is described as follows: 11β-HSD1 inhibiting activity, HTRF assay with human microsomal fractions. It counts as biochemical. The settings on record: 160 nM cortisone, 200 μM NADPH, 2 h at 37° C. The procedure:
The inhibiting activity of 11β-HSD1 derived from microsomal fractions was measured using the HTRF assay (62CO2PEB, Cisbio). […] Europium (Eu^3+) cryptate and XL665-conjugated cortisol were then added to each well and incubated for an additional 2 h at room temperature. The Cortisol concentration was calculated u sing a calibration curve. The IC50 values were calculated from dose response curves using GraphPad Prism software.
A general note: TR-FRET usually uses a lanthanide donor and a delayed reading to cut background.

Where “and” joins values, the source holds several entries; their conditions need not be identical. Identical values can stand only once. Bounds are passed on as bounds.

`COc1ccc(S(=O)(=O)Nc2ccc(Cl)c(C(=O)NC3C4CC5CC3CC(C(N)=O)(C5)C4)c2)cc1Cl` (stereo not shown) [Example 133, E-4-[2-chloro-5-(3-chloro-4-methoxybenzenesulfonylamino)benzamido]adamantan-1-carboxylic acid amide] gave an IC50 of 14.8 nM.
Then `NC(=O)C12CC3CC(C1)C(NC(=O)C1(CNS(=O)(=O)c4cc(F)c(F)cc4F)CC1)C(C3)C2` (stereo not shown) [Example 36, E-4-[1-((2,4,5-trifluoro-benzenesulfonylamino)methyl)cyclopropanecarboxamido]-adamantan-1-carboxylic acid amide], with 73 nM; and `NC(=O)C12CC3CC(C1)C(NC(=O)c1cc(NS(=O)(=O)c4cccc(Cl)c4)ccc1Cl)C(C3)C2` (stereo not shown) [Example 126, E-4-[2-chloro-5-(3-chloro-benzenesulfonylamino)benzamido]adamantan-1-carboxylic acid amide], with 67.5 nM.
Compound `NC(=O)C12CC3CC(C1)C(NC(=O)C1(CNS(=O)(=O)c4ccc(Cl)cc4)CC1)C(C3)C2` (stereo not shown) [Example 37, E-4-[1-((4-chloro-benzenesulfonylamino)methyl)cyclopropanecarboxamido]-adamantan-1-carboxylic acid amide] showed an IC50 of 17.1 nM.
For `NC(=O)C12CC3CC(C1)C(NC(=O)c1cccc(NS(=O)(=O)c4cccc(Cl)c4)c1)C(C3)C2` (stereo not shown) [Example 95, E-4-[3-(3-chloro-benzenesulfonylamino)-benzamido]-adamantan-1-carboxylic acid amide] the value was 13.1 nM; for `NC(=O)C12CC3CC(C1)C(NC(=O)C1(CNS(=O)(=O)c4ccccc4)CC1)C(C3)C2` (stereo not shown) [Example 28, E-4-[1-((benzenesulfonylamino)methyl)cyclopropanecarboxamido]-adamantan-1-carboxylic acid amide], 1.2 nM; for `NC(=O)C12CC3CC(C1)C(NC(=O)C1(NC(=O)c4ccccc4F)CC1)C(C3)C2` (stereo not shown) [Example 63, E-4-[1-(2-fluorobenzamido)cyclopropanecarboxamido]-adamantan-1-carboxylic acid amide], 672 nM.
As to `CN(c1cccc(C(=O)NC2C3CC4CC2CC(C(N)=O)(C4)C3)c1)S(=O)(=O)c1cccc(Cl)c1` (stereo not shown) [Example 97, E-4-(3-[(3-chloro-benzenesulfonyl)-methylamino]-benzamido)-adamantan-1-carboxylic acid amide], the IC50 is 15.6 nM.
For `NC(=O)C12CC3CC(C1)C(NC(=O)C1(CNS(=O)(=O)c4cccs4)CC1)C(C3)C2` (stereo not shown) [Example 19, E-4-[1-((thiophen-2-sulfonylamino)methyl)cyclopropanecarboxamido]-adamantan-1-carboxylic acid amide] the value was 17.8 nM; for `NC(=O)C12CC3CC(C1)C(NC(=O)C1(NC(=O)c4ccc(F)c(F)c4)CC1)C(C3)C2` (stereo not shown) [Example 57, E-4-[1-(3,4-difluoro-benzeneamino)cyclopropanecarboxamido]-adamantan-1-carboxylic acid amide], 9.3 nM; for `NC(=O)C12CC3CC(C1)C(NC(=O)c1cc(NS(=O)(=O)c4cc(Cl)cc(Cl)c4)ccc1Cl)C(C3)C2` (stereo not shown) [Example 129, E-4-[2-chloro-5-(3,5-dichlorobenzenesulfonylamino)benzamido]adamantan-1-carboxylic acid amide], 41.8 nM.
For `NC(=O)C12CC3CC(C1)C(NC(=O)c1ccc(F)c(NS(=O)(=O)c4cccc(Cl)c4)c1)C(C3)C2` (stereo not shown) [Example 127, E-4-[3-(3-chlorobenzenesulfonylamino)-4-fluorobenzamido]adamantan-1-carboxylic acid amide] the value was 78.3 nM.
`NC(=O)C12CC3CC(C1)C(NC(=O)c1cccc(NS(=O)(=O)c4cccs4)c1)C(C3)C2` (stereo not shown) [Example 102, E-4-[3-(thiophen-2-sulfonylamino)-benzamido]-adamantan-1-carboxylic acid amide] displayed an IC50 of 1.1 nM.
Then `CN(C1(C(=O)NC2C3CC4CC2CC(C(N)=O)(C4)C3)CC1)S(=O)(=O)c1ccccc1F` (stereo not shown) [Example 61, E-4-[1-(2-fluoro-N-methylbenzenesulfonylamino)cyclopropanecarboxamido]-adamantan-1-carboxylic acid amide], with 2.8 nM; and `NC(=O)C12CC3CC(C1)C(NC(=O)c1cccc(NS(=O)(=O)c4cc(Cl)cc(Cl)c4)c1)C(C3)C2` (stereo not shown) [Example 119, E-4-[3-(3,5-dichloro-benzenesulfonylamino)benzamido]-adamantan-1-carboxylic acid amide], with < 1 nM and 0.9 nM.
In turn, `NC(=O)C12CC3CC(C1)C(NC(=O)C1(CNS(=O)(=O)c4c(F)cc(F)cc4F)CC1)C(C3)C2` (stereo not shown) [Example 12, E-4-[1-((2,4,6-trifluoro-benzenesulfonylamino)methyl)cyclopropanecarboxamido]-adamantan-1-carboxylic acid amide] displayed a half-inhibitory concentration (IC50) of 9.5 nM.

As a reminder, the IC50 is the concentration that inhibits the measured activity by half. A higher IC50 goes with weaker potency.
